Biological target: HSP-90 (Homo sapiens, UniProt P07900)
Conditions: read-out: Kd of hot ligand; radioligand binding to HSP-90

[3H]CC([3H])CNC(=O)C1c2ccccc2CN1C(=O)c1cc(Cl)c(O)cc1O (stereo not shown) [Compound A] was tested, and the Kd was 40 nM.

From patent publication US8080556B2, “2-amino pyrimidine compounds as potent HSP-90 inhibitors” (Pfizer Inc., priority 2008, dated 2011)
